# Assay results published in ChEMBL document CHEMBL5512638, “Novel pyrrole based CB2 agonists: New insights on CB2 receptor role in regulating neurotransmitters' tone” (Eur J Med Chem, 2024).
# Protein sequences, listed by entry. Tags and fused reporters are not part of them. Lines headed by an entry give the natural chain unless they say otherwise; changes in a name come on top.
# UniProt P47936: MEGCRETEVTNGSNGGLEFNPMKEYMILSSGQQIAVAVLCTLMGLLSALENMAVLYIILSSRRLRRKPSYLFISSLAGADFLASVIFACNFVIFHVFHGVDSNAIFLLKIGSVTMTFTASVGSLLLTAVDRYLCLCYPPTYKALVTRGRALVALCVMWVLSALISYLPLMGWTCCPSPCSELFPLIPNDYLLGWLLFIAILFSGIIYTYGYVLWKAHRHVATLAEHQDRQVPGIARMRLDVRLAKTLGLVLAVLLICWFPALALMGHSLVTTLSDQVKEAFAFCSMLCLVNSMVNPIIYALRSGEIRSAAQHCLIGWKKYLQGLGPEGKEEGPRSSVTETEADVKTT
# UniProt O75762, whole entry: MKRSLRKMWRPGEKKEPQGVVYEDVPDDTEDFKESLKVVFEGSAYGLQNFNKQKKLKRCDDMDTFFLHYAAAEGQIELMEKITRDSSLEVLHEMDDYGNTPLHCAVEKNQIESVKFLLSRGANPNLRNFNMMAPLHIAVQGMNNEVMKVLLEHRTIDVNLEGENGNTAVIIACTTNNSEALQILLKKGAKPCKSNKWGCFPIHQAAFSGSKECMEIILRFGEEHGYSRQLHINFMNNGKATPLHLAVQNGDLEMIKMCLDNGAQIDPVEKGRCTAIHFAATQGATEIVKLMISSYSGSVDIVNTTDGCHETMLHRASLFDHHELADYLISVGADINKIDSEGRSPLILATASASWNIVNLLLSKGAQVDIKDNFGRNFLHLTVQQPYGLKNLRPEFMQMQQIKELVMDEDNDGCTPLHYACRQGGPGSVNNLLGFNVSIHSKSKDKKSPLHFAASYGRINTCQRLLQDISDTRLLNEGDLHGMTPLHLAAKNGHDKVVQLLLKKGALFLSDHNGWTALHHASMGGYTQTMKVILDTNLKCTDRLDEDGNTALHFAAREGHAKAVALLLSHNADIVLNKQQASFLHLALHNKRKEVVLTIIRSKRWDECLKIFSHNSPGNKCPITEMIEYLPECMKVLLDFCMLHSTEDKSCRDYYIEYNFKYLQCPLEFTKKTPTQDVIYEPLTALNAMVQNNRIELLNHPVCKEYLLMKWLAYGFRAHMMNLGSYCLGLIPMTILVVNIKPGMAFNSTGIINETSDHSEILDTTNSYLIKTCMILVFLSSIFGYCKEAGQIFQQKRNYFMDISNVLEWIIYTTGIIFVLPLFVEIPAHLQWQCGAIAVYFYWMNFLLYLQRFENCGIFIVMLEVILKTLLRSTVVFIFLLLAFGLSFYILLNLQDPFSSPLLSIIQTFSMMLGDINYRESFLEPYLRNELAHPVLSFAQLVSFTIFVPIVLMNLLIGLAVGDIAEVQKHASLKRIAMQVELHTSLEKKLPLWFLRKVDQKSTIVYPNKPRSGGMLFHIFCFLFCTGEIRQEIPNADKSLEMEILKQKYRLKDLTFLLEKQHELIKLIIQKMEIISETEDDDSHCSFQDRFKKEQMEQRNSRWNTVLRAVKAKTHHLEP
# Columns and labels:
# [1] = target: Cannabinoid receptor 2 (Mus musculus) (UniProt P47936); experiment: Agonist activity at CB2 receptor in mouse spleen membrane assessed as reduction in forskolin-induced cAMP production at 0.1 to 10 uM incubated for 30 mins by LANCE ULTRA cAMP TR-FRET assay; format: functional, cell membranes; settings: filed as agonist, dose 0.1-10 µM
# [2] = target: Transient receptor potential cation channel subfamily A member 1 (Homo sapiens) (UniProt O75762); experiment: Activation of TRPA1 (unknown origin) upto 25 uM
smiles,measurement,setting,value
O=C(Nc1cccc(-c2ccccc2)c1)c1cccn1Cc1ccc(F)cc1,Activity,[1],Active
same,Activity,[2],inactive

# Calls of active or inactive are those of the source. No cut-off for these calls is given here.
